In one test the target is T1, SERT (Rattus norvegicus, UniProt P31652).
T1 construct: Synaptosomes from rat cerebrum were isolated as described by Bogen et al; from tissue; host or cells: rat cerebrum synaptosomes
The experiment in a line: Synaptosomal uptake of [3H]5-HT in rat brain synaptosomes. The test is classed as biochemical. The settings on record: IC50 Synaptosomes [3H]5-HT Uptake via SERT.

Sequences of proteins named here, by UniProt entry; tags and fusion partners are left off. Residues count along the entry.
UniProt P31652, whole entry: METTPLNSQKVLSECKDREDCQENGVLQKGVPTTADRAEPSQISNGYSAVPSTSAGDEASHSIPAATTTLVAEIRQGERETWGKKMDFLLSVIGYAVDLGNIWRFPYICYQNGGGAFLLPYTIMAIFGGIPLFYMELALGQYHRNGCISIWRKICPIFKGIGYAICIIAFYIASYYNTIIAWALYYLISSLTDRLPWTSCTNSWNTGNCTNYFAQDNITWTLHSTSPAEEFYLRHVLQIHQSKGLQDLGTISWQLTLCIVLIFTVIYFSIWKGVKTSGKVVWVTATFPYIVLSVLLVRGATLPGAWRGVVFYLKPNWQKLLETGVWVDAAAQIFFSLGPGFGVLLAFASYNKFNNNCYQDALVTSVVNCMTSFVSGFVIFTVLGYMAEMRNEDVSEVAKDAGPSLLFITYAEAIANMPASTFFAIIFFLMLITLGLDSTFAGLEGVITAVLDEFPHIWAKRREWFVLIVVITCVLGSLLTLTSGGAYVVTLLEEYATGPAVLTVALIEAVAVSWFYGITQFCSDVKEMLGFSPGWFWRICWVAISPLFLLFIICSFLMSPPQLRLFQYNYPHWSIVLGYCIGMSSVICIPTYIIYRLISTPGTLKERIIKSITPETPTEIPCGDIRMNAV
UniProt Q63380, 1-617: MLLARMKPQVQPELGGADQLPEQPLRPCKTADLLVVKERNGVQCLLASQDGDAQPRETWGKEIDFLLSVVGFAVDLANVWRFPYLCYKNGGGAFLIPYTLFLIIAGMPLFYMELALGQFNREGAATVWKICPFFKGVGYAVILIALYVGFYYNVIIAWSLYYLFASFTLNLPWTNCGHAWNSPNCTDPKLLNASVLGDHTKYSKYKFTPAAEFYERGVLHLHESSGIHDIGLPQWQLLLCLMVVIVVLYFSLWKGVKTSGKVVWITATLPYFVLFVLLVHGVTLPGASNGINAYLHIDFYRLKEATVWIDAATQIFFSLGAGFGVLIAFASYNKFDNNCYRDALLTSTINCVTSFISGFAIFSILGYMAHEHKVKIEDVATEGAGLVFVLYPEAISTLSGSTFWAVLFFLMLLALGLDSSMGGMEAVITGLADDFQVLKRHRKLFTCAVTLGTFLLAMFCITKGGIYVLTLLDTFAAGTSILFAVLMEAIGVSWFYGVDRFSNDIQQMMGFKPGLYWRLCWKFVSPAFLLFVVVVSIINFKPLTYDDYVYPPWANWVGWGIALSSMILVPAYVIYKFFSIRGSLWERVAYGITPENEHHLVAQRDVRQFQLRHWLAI

Another test deals with T2, NET (Rattus norvegicus, UniProt Q63380).
T2 construct: Synaptosomes from rat cerebrum were isolated as described by Bogen et al; from tissue; host or cells: rat cerebrum synaptosomes
The experiment in a line: Synaptosomal uptake of [3H]NE in rat brain synaptosomes. It counts as biochemical.

Test [1] relates to DA, 3-MT, DOPAC, 5-HT and 5-HIAA in dorsal striatum and nucleus accumbens. As to the kind of experiment: Neurotransmitter and metabolite concentrations in post-mortem mouse brain tissue. The conditions noted are these: 20 min after 12.5 mg/kg i.p. It counts as in vivo.

A word on the IC50: it is the concentration that gives 50% inhibition. A low value points to greater potency. Turning to `CN[C@@H](C)Cc1ccccc1` [methamphetamine], the concentration for half-maximal inhibition (IC50) against SERT was 4900 ± 390 nM. Further, the half-maximal inhibitory concentration (IC50) at NET was determined as 80 nM. In test [1] (Dorsal Striatum), the 3-MT concentration is on record as 5.9 ± 0.6 nmol/g, the 5-HT concentration was determined as 1.8 ± 0.2 nmol/g and the DA concentration was determined as 109.6 ± 19.4 nmol/g. Further, in test [1] (Nucleus Accumbens), the 3-MT concentration is given as 2.9 ± 0.4 nmol/g, the 5-HT concentration was found to be 5.6 ± 1.4 nmol/g and the DA concentration was 54.6 ± 10.4 nmol/g.

(Values after article PMC8585037 (International Journal of Molecular Sciences, 2021).)
